For experiment [1], the system named is Enterobacter aerogenes ATCC 13048.
In experiment [2] the test system is Salmonella enterica ATCC 14028.
The subject of experiment [3] is Escherichia coli 331. The experiment can be described thus: MIC assay (microbroth dilution) ± 25 μM EPI. The conditions noted are these: Escherichia coli, 331, read-out: MIC (μg/ml) ± EPI: None.
Experiment [4] deals with Escherichia coli AB1157. As to conditions: E. coli AB1157.
The test system of experiment [5] is P. aeruginosa ATCC 27853.
In experiment [6] the test system is Escherichia coli ATCC 25922. The experiment can be described thus: MIC assay (microbroth dilution) ± 25 μM EPI. As to conditions: E. coli ATCC 25922.
Experiment [7] has as its system Escherichia coli 285 (AB1157, CIPR, overexpresses efflux).
In experiment [8] the test system is Klebsiella pneumoniae ATCC 700603.
Experiment [9] concerns Escherichia coli 287 (AB1157, CIPR, overexpresses efflux).
Experiment [10] deals with Shigella flexneri ATCC 12022. The experiment can be described thus: MIC assay (microbroth dilution) ± 25 μM EPI.
The mark [11] stands for this setting: MIC no cmpd/MIC + 25 μM MBX2319.
[12] abbreviates: highest ratio of MIC (no compound)/MIC (MBX2319).

Experimental findings from patent US9540389B2, “Antimicrobial potentiators” (priority 2013, dated 2017) are described below.

Molecules are shown by their SMILES. In brackets after ≈: the same amount, converted by molar mass.

Regarding `CO/N=C(\C(=O)N[C@@H]1C(=O)N2C(C(=O)O)=C(COC(C)=O)CS[C@H]12)c1csc(N)n1` [CEF, cefotaxime], the “MIC ratio MBX2319” value came to 0.8 in [1] (setting [11]); 3.4 in experiment [2] (setting [11]); 4.8 in experiment [4] (setting [11]); 6.7 in experiment [5] (setting [11]); 1.2 in experiment [6] (setting [11]); 1 in [8] (setting [11]). In experiment [10] (setting [11]), the “MIC ratio MBX2319” value was found to be 2. In addition, the “MIC ratio PAβN” value stood at 0.3 in [1] (MIC no cmpd/MIC + 25 μM PAβN); 0.7 in experiment [2] (MIC no cmpd/MIC + 25 μM PAβN); 0.42 in experiment [4] (MIC no cmpd/MIC + 25 μM PAβN); 2.8 in [5] (MIC no cmpd/MIC + 25 μM PAβN); 0.3 in experiment [6] (MIC no cmpd/MIC + 25 μM PAβN); 1 in experiment [8] (MIC no cmpd/MIC + 25 μM PAβN). Moreover, the “MIC ratio PAβN” value in [10] (MIC no cmpd/MIC + 25 μM PAβN) was 1. Further, in experiment [3], the MIC was 0.125 µg/mL (≈ 0.274 µM). Moreover, the “MIC (μg/ml) with MBX2319 at concn (μM) of: 1.56” value in [7] (MBX2319 1.56 μM) and in experiment [9] (MBX2319 1.56 μM) was 0.125 µg/mL throughout. The “MIC (μg/ml) with MBX2319 at concn (μM) of: 12.5” value in experiment [7] (MBX2319 […]) and in experiment [9] (MBX2319 […]) was 0.063 µg/mL in each case. For the same compound, the “MIC ratios 2319” value in experiment [7] (setting [12]) is recorded as 8; in [9] (setting [12]), 4. Further, in [9] (MBX2319 3.13 μM), the “MIC (μg/ml) with MBX2319 at concn (μM) of: 3.13” value was 0.125 µg/mL.
